Laboratory results: patent publication US7176219B2, “Salts of quinuclidine derivative” (priority 2005, dated 2007)

Legend:
[1] = Evaluation of hygroscopicity (dynamic steam adsorption, weight change); format: physicochemical; conditions: 25° C., within the range 5–95% relative humidity
Experimental: A sample (about 5 mg) was placed in a purpose-made quartz holder, and the sample weight at the respective humidity was continuously measured and recorded in the following conditions. The apparatus including data processing was operated according to the method and procedure directed in each device. (Apparatus: dynamic steam adsorption measuring apparatus DVS Advantage, made by SMS)

[2] = Evaluation of stability (1): forced degradation test, impurities by LC
Experimental: A sample after storage was dissolved in 1 mL of MeOH and used as a sample solution. The sample solution was diluted 100 times with MeOH and used as a standard solution. Impurities contained in the sample solution was quantitatively analyzed using the standard solution. In this determination, the apparatus including data processing was operated according to the method and procedure directed in each device. (Apparatus: LC-MSD 1100 series, made by Agilent)

Substance: (−)-(3R)-quinuclidin-3-yl(1R)-1-phenyl-1,2,3,4-tetrahydroisoquinoline-2-carboxylate cyclohexanesulfamate [Example 6]
- Weight Change (%) [1]: <3%
- Change from Impurity Amt. before Storage (%), Condition 3 ([2]; 25° C., NUV (near ultraviolet ray) irradiated, tightly closed, 5 days): 0.1%
- Change from Impurity Amt. before Storage (%), Condition 2 ([2]; 25° C., relative humidity 93%, open, 5 days): 0.0%
- Change from Impurity Amt. before Storage (%), Condition 1 ([2]; 120° C., tightly closed, 24 hours): 8.1%
- Increase of impurities under heat ([2]; Condition 1 of Test Example 2 (stability test to heat)): increase of impurities
- Impurities before Storage (%) ([2]; before storage): 1.4%
